In this assay the target is mImpα1ΔIBB. As to the kind of experiment: Solid phase plate binding assay. Also noted: species or system mouse. The following applies: MaxiSorp plates coated with 25 nM GST-cNLS, serial dilutions of S-tagged mImpα1ΔIBB, 1 hr at 4°C, S-protein-HRP/TMB read at 450 nm, duplicate, mean with standard error, one-site specific binding (Prism), read-out: Kd apparent. The method, then: Solid phase binding assays were performed as previously described, with cross-linking omitted. MaxiSorp plates (Nunc) were coated with 25 nM of GST-cNLS or GST in coating buffer (PBS supplemented with 0.2 mM phenylmethylsulfonyl fluoride (PMSF) and 2 mM DTT). Plates were blocked overnight in coating buffer supplemented with 3% BSA and 0.1% Tween 20. Serial dilutions of S-tagged mImpα1ΔIBB were added and incubated for 1 hr at 4°C. Plates were washed 3 times by immersion in coating buffer supplemented with 0.1% Tween 20, and detected with S-protein-HRP conjugate (Novagen) using 3,3’, 5, 5’-tetramethylbenzidine as a substrate. The reaction was stopped by the addition of 1 M HCl, and the signal read at 450 nm using a PHERAstar plate reader (BMG LABTECH).

Regarding “PKKKRKV [GST-SV40 TAg cNLS, GST fusion of the prototypic monopartite SV40 large T antigen cNLS; positive control]”, the Kd turned out to be 12.5 ± 1.9 nM.

Source of the values: PMC5570423, “Structural characterisation of TNRC6A nuclear localisation signal in complex with importin-alpha” (PLoS ONE, 2017).
